Results: ChEMBL document CHEMBL1268984, “N-Substituted acetamidines and 2-methylimidazole derivatives as selective inhibitors of neuronal nitric oxide synthase” (Bioorg Med Chem Lett, 2010)

Amino acid sequences for entries named in this document (tags omitted).
UniProt P29476, whole entry: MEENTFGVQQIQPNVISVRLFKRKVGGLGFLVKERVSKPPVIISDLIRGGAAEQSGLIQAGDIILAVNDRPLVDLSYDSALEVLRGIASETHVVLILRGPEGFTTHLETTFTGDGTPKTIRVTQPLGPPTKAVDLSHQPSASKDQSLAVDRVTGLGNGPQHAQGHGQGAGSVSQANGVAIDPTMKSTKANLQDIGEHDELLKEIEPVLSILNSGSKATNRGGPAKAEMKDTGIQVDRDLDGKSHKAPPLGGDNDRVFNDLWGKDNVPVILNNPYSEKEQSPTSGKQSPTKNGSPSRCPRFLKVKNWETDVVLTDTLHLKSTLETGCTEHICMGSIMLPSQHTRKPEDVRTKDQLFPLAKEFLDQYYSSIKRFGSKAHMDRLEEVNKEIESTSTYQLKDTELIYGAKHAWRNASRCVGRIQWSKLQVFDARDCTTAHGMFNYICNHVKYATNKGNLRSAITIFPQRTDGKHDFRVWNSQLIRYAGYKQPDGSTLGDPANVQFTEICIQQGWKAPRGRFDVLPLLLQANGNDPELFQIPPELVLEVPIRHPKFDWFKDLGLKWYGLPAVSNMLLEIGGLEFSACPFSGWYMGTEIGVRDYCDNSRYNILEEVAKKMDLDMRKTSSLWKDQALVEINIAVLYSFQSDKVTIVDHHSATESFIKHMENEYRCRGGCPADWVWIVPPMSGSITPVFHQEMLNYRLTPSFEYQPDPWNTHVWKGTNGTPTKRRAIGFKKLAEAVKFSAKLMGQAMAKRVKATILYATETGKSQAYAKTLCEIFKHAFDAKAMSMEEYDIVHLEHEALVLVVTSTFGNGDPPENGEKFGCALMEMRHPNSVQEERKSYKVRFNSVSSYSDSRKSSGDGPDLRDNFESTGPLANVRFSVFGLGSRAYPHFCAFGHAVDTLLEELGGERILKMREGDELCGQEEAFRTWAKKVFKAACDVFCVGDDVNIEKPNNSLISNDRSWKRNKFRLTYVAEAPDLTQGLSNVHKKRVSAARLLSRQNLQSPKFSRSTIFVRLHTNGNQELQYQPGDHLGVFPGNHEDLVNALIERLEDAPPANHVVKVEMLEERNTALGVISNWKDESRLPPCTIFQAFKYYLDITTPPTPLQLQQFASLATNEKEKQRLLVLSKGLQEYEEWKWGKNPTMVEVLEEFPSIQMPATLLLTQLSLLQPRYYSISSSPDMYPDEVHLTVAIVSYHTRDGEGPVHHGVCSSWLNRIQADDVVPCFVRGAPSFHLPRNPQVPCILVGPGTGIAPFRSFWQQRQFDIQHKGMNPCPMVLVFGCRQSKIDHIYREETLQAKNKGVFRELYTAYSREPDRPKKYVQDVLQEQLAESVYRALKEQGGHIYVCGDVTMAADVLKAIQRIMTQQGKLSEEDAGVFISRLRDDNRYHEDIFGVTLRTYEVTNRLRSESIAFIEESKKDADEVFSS

Key:
[1] = target: Nitric oxide synthase 1 (Rattus norvegicus, UniProt P29476); experiment: Inhibition of rat brain nNOS assessed as nitric oxide mediated oxidation of oxyhemoglobin to methemoglobin
[2] = target: T1, Nitric oxide synthase 3 (Bos taurus, UniProt P29473); experiment: Inhibition of bovine eNOS assessed as nitric oxide mediated oxidation of oxyhemoglobin to methemoglobin
T1 sequence (P29473 whole entry): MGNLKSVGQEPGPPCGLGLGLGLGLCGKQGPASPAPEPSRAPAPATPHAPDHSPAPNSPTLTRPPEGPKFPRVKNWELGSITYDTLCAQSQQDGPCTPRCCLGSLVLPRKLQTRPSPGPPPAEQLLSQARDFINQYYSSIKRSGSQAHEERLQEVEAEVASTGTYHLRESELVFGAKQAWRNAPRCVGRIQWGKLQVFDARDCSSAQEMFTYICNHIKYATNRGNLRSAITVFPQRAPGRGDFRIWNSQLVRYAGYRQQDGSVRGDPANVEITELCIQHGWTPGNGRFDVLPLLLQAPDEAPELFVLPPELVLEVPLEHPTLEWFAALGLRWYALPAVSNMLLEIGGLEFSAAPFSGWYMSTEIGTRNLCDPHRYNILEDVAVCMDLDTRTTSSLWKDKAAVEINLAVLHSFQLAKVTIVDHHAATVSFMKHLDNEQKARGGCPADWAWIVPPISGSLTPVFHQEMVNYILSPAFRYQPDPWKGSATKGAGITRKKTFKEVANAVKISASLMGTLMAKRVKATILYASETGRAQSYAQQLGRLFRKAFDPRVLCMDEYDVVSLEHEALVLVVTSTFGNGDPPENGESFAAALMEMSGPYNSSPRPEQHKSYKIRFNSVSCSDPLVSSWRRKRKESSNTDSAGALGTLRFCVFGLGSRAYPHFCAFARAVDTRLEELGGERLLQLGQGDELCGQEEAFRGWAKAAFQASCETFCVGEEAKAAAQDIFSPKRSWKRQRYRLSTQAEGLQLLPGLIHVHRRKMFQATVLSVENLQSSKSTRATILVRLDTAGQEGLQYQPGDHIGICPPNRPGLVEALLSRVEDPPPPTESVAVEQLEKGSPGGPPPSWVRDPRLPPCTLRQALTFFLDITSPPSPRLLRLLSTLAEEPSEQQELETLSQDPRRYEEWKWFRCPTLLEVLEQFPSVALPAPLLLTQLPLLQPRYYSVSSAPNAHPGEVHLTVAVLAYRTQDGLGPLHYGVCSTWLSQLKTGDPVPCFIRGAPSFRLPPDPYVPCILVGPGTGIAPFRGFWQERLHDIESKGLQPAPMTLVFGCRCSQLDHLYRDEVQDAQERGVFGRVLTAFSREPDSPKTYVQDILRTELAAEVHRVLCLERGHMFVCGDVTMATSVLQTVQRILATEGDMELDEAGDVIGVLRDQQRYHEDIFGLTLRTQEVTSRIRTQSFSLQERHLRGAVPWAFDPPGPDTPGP

IC50 [1]: 7.3 µM | IC50 [2]: 1100 µM
Compound: CC(=N)NCc1cccc(CN)c1 [1400W]
